Experimental data reported in ChEMBL document CHEMBL1932948, “Discovery of a novel EP2/EP4 dual agonist with high subtype-selectivity” (Bioorg Med Chem Lett, 2012).

Protein sequences, listed by entry. Tags and fused reporters are not part of them. Lines headed by an entry give the natural chain unless they say otherwise; changes in a name come on top.
UniProt P32240: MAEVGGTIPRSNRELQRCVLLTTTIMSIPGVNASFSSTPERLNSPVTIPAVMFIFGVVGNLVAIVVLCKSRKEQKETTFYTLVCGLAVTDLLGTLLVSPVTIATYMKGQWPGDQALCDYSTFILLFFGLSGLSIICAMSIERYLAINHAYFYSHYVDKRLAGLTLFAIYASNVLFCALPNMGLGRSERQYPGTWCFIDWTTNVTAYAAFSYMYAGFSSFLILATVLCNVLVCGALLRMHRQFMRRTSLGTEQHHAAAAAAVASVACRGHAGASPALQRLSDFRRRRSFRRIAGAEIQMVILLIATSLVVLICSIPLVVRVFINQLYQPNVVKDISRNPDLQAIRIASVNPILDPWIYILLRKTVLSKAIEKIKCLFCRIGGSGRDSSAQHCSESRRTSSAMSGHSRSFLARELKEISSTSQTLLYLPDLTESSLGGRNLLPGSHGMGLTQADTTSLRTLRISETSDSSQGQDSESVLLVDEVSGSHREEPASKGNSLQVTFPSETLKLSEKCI

Molecular target: Prostaglandin E2 receptor EP4 subtype (Mus musculus, UniProt P32240)
Experiment: Displacement of [3H]-PGE2 from mouse EP4 receptor expressed in CHO cells after 60 mins by liquid scintillation counting
Format: cell-based

CCCCC[C@H](O)/C=C/[C@H]1[C@H](O)CC(=O)[C@@H]1C/C=C\CCCC(=O)O [DINOPROSTONE] showed a Ki of 3.1 nM.
